Data reported in ChEMBL document CHEMBL5725207, “Inhibitor of breast cancer resistance protein (BCRP)” (2017).

Experiment: Caco-2 cells assay: To determine potency of compounds on inhibition of transporters, bi-directional transport studies are performed in Caco-2 cells (American Type Culture Collection, Manassas, Va.) at 37° C. in air, according toXia et al. (Expression, localization and functional characteristics of breast cancer resistance protein in Caco-2 cells. Drug Met. Disp., 33 (5): 637-643 (2005)). Prior to …
Type: cell-based
Details: Caco-2, 0.5 h

## COc1ccc2c3c([nH]c2c1)[C@H](CC(C)C)N1C(=O)[C@H](CCC(=O)OC(C)(C)C)NC(=O)[C@@H]1C3
  IC50: > 30 µM
